This note sets out measurements from patent publication US20210130420A1, “RECOMBINANT BINDING PROTEINS TARGETING HER2 AND SERUM ALBUMIN, AND THEIR USES” (Molecular Partners AG, priority 2016, published 2021).

One assay relates to MDA-MB175 cells. The assay can be described thus: MDA-MB175 cell proliferation, BrdU-labeling. It counts as cell-based. Particulars: single agent or on top of suboptimal Protein #21-His (4 nM) or Protein #21 (10 nM). As for the experimental part: Protein #21 and Protein #21-His were expressed and purified as described in Example 1. Standard BrdU cell proliferation assays were performed, well-known to the person skilled in the art. Briefly, effects on cell proliferation of Protein #21-His, other compounds, or Protein #21-His in combination with other compounds, were determined by measuring DNA synthesis using BrdU-labeling (BrdU, Cell Proliferation ELISA, Roche). Briefly, 10000 cells were seeded per well in a 96 well plate in 100 μl complete medium and incubated for 24 hours. Protein #21-His and/or compounds were added for an additional 72 hours. BrdU for cell labeling was added for the last 24 hours. Labeled (proliferating) cells were detected according to the manufactures protocol. The data were analyzed using the Graph Pad prism software (log [c] vs. OD450-602 nm plot). Data were fitted using a non-linear regression fit (log(antagonist) vs. response—variable slope (four parameters)).

A further assay has as its system HER3. Put plainly: Phosphorylation state ELISA, BT474 cells. It counts as cell-based, human. As to conditions: 100 nM, 18 hours. For orientation: An ELISA detects its analyte on a solid surface through an enzyme-linked reagent.
The subject of a further assay is RPS6KB1/S6 Kinase. Put plainly: Phospho-proteome mass spectrometry of BT474 cells. As to conditions: 100 nM, 18 hours. It counts as cell-based, human. The source says:
(§1) Protein #21 was expressed and purified as described in Example 1. […] Cells were then subjected to a phospho-proteome mass-spectrometry analysis as described by Britton, D., et al. (Britton, D., Zen, Y., Quaglia, A., Selzer, S., Mitra, VI., Lössner, C., Jung, S., Bohm, G., Schmid, P., Prefot, P., Hoehle, C., Koncarevic, S., Gee, J., Nicholson, R., Ward, M., Castellano, L., Stebbing, J., Zucht, H. D., Sarker, D., Heaton, N., and Pike, I., 2014. PLOS One 9 (3), e90948). […] At other phosphorylation sites, phosphorylation is increased (772).

Assay [1] relates to AKT. Put plainly: Phospho-proteome mass spectrometry of BT474 cells. As to conditions: 100 nM, 18 hours. It counts as cell-based, human.
Source text: as §1

Another assay concerns mTOR. Put plainly: Phospho-proteome mass spectrometry of BT474 cells. Particulars: 100 nM, 18 hours. It counts as cell-based, human.
Source text: as §1

The next assay concerns RAF. Put plainly: Phospho-proteome mass spectrometry of BT474 cells. It counts as cell-based, human. As to conditions: 100 nM, 18 hours.
Source text: as §1

For assay [2], the system named is AKT. Put plainly: Phospho-site specific ELISA, BT474 cells. It counts as cell-based, human. As to conditions: 100 nM, 18 hours.
Assay [3] concerns Foxo3a protein. The assay can be described thus: Cellular levels of Foxo3a protein in NCI-N87 cells. It counts as cell-based. Particulars: compared to an exposure to PBS only.
Source text: as §1
(§2) In this experiment, it was further observed that exposure of BT474 and NCI-N87 cells to Protein #21 increased the cellular levels of Foxo3a protein by 1.88 and 2.8-fold, respectively, when compared to an exposure to PBS only. […] It is known to the practitioner in the art, that Akt1 phosphorylates Foxo3a, resulting in the degradation of Foxo3a and promotion of cell survival. Inhibition of Act phosphorylation leads to stabilization of Foxo3a and thus increase in Foxo3a levels. At increased levels Foxo3a can translocate to the nucleus and induce apoptosis.

The subject of assay [4] is BT474 cells. The assay can be described thus: BT474 cell proliferation, BrdU-labeling. Particulars: single agent or on top of suboptimal Protein #21-His (2 nM) or Protein #21 (1 nM). It counts as cell-based, human. As for the experimental part:
Protein #21-His and Protein #23-His, were expressed and purified as described in Example 1. Effects of the recombinant binding proteins on BT474 cell proliferation were determined by measuring DNA synthesis using BrdU-labeling (BrdU, Cell Proliferation ELISA, Roche). Briefly, 10000 BT474 cells were seeded per well in a 96 well plate in 100 ul complete medium and incubated for 24 hours. Recombinant binding proteins or controls were added for an additional 72 hours. BrdU for cell labeling was added for the last 24 hours. Labeled (proliferating) cells were detected according to the manufactures protocol. The data were analyzed using the GraphPad prism software, plotting log [c] on the x-axis against OD450-602 nm on the y-axis. Data were fitted using a non-linear regression fit (log(antagonist) vs. response—Variable slope (four parameters)) deriving IC50 values. […]
Protein #21 and Protein #21-His were expressed and purified as described in Example 1. […] Briefly, effects on cell proliferation of Protein #21-His, other compounds, or Protein #21-His in combination with other compounds, were determined by measuring DNA synthesis using BrdU-labeling (BrdU, Cell Proliferation ELISA, Roche). […] Labeled (proliferating) cells were detected according to the manufactures protocol. The data were analyzed using the Graph Pad prism software (log [c] vs. OD450-602 nm plot). […]

Assay [5] has as its system Foxo3a protein. The assay can be described thus: Cellular levels of Foxo3a protein in BT474 cells. It counts as cell-based, human. Particulars: compared to an exposure to PBS only.
Source text: as §1, §2

The test system of another assay is HER1/EGFR. Put plainly: Phosphorylation state ELISA, BT474 cells. It counts as cell-based, human. Particulars: 100 nM, 18 hours.
The next assay concerns GXA3039. Put plainly: Gastric cancer patient derived tumor xenograft mouse model GXA3039. It counts as in vivo. Particulars: Protein #21 60 mg/kg, antibodies 10 mg/kg, every three days for 6 times. As for the experimental part: Further, Protein #21 was expressed and purified as described in Example 1. […] All groups were dosed every three days for 6 times. Briefly, tumor fragments were obtained from xenografts in serial passage in nude mice. After removal from donor mice, tumors were cut into fragments (4-5 mm diameter) for subcutaneous implantation. Mice were randomized into groups when tumors reached a volume of approximately 100-120 mm^3. The day of randomization and treatment initiation is designated as day 0 in each experiment. Tumor growth was monitored by two-dimensional measurement with a caliper on the day of randomization and then twice weekly. Relative volumes of individual tumors (individual RTVs) for Day x were calculated by dividing the individual tumor volume on Day x (Tx) by the individual volume of the same tumor on Day 0 (TO) multiplied by 100%. Tumor inhibition for a particular day (T/C in %) was calculated from the ratio of the median RTV values of test versus control groups multiplied by 100%.

The test system of assay [6] is BT474 cells. The assay can be described thus: Induction of apoptosis, Caspase 3/7 activation. It counts as cell-based, human. Particulars: FIG. 7. As for the experimental part: Induction of apoptosis by Protein #21 was determined by measuring Caspase3/7 activation using the Caspase 3/7-Glo systems (Promega, Switzerland). Briefly, 10000 BT474 cells were seeded per well in a 96 well plate in100 μl complete medium and incubated for 24 hours. Protein #21 and benchmarks were added for an additional 24 hours. Caspase Glo reagent was added according to the manufactures protocol for 1 hour. Caspase 3/7 activation was monitored by measuring luciferase activity. Alternatively induction of apoptosis was determined using the Cell Death Detection […] system (Roche, Switzerland). The assay was performed according to the manufactures protocol. Cell number and incubations times were similar to the Caspase Glo readout. Data were analyzed using the GraphPad prism software, plotting concentration on the x-axis against OD405/490 nm or relative light units (RLU; measured on a Tecan M-1000 reader) on the y-axis. Data were fitted using a non-linear regression fit (log(agonist) vs. response—Variable slope (four parameters)).

Turning to Trastuzumab, in the assay with MDA-MB175 cells, the “inhibition of MDA-MB175 cell proliferation, in words” value is on record as “only limited activity”. The “HER3 Pan-Phospho-Tyrosine” value in the assay on HER3 is 0.52 fold change to PBS. For the same substance, in the assay on RPS6KB1/S6 Kinase, the “RPS6KB1/S6Kinase S441/T444/S447 phosphorylation” value was 0.88 fold change to PBS and the “RPS6KB1/S6Kinase T444/S447 phosphorylation” value is recorded as 0.97 fold change to PBS. Besides, in the assay with AKT [1], the “AKT S124 phosphorylation” value is reported as 0.9 fold change to PBS and the “AKT S129 phosphorylation” value is given as 1.04 fold change to PBS. Moreover, the “mTOR S2448/S2454 phosphorylation” value in the assay with mTOR was 0.85 fold change to PBS. In addition, in the assay on RAF, the “RAF S642 phosphorylation” value is 1.07 fold change to PBS and the “RAF T631/T638/T640/T641/S642 phosphorylation” value is on record as 0.77 fold change to PBS. Besides, the “AKT S473 phosphorylation” value in the assay on AKT [2] is recorded as 0.31 fold change to PBS. Also, the “increase of cellular levels of Foxo3a protein” value in the assay with Foxo3a protein [3] turned out to be 1.32 fold. In addition, in the assay with BT474 cells [4], the “inhibition of BT474 cell proliferation, in words” value was “only limited activity”. Also, the “increase of cellular levels of Foxo3a protein” value in the assay on Foxo3a protein [5] is 1.14 fold. For the same substance, in the assay on HER1/EGFR, the “HER1/EGFR Pan-Phospho-Tyrosine” value is on record as 0.53 fold change to PBS. The “inhibition of tumor growth, first experiment” value in the assay on GXA3039 (GXA3039, FIG. 4C) is reported as “less efficacious”. The “inhibition of tumor growth, second experiment” value in the assay on GXA3039 (GXA3039, FIG. 4D) is “significantly less efficacious”. The “induction of apoptosis in BT474 cells” value in the assay on BT474 cells [6] is “did not induce apoptosis”.
